According to patent US11118211B2, “Methods for the design of mechanism-based sirtuin activating compounds” (CHAKRABARTI ADVANCED TECHNOLOGY LLC, priority 2015, dated 2021):

Target: T1, Human Sirt3 protein (Homo sapiens, UniProt Q9NTG7)
T1 sequence (Q9NTG7 102-399): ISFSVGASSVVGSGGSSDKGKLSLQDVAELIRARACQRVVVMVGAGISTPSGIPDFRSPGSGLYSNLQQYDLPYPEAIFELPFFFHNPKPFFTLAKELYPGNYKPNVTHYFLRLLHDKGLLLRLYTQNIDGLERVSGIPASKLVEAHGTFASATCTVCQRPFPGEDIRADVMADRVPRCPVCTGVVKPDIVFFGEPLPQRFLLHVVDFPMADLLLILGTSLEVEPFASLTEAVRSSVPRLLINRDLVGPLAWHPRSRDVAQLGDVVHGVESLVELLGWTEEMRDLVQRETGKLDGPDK
Conditions: Honokiol at 10 uM

## C=CCc1ccc(O)c(-c2ccc(O)c(CC=C)c2)c1 [Honokiol, 5,3′-Diallyl-2,4′-dihydroxybiphenyl]
[NAD+] 50 uM, threshold vapp/v=1.10
  hit validation by label-free kinetic assay: not validated as a hit
For specified Km,NAD+,app/Km,NAD+=0.7 or 0.8
  SIRT3 activation in label-free assay: does not activate SIRT3
